Assay results as given in paper PMC5355877, “The development of novel LTA4H modulators to selectively target LTB4 generation” (Scientific Reports, 2017).

Target: T1, recombinant human LTA4H (aminopeptidase, PGP substrate) (Homo sapiens, UniProt P09960)
T1 construct: purchased Cayman Chemicals
T1 sequence (P09960 1-611): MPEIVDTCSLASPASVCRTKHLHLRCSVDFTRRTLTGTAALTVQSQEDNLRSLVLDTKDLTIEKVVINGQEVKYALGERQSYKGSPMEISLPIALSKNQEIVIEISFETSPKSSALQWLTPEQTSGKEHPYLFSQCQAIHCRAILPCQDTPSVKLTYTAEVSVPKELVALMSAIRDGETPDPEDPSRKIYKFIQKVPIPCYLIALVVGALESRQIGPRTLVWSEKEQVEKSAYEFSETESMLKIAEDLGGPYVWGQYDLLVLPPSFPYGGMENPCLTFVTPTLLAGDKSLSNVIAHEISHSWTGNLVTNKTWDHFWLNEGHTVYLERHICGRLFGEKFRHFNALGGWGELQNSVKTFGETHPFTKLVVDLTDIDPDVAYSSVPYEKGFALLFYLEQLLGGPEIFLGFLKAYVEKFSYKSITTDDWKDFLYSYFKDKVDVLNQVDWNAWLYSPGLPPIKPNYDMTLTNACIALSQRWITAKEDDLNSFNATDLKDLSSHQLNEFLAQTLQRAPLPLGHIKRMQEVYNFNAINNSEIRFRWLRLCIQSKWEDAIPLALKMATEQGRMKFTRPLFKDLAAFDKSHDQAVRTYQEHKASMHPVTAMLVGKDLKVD
Assay: LTA4H aminopeptidase activity: PGP degradation by recombinant human LTA4H
Format: biochemical
Details: Table 1, read-out: Aminopeptidase IC50 ± SEM
Description: For peptide quantification in serum, PGP and AcPGP were measured using a MDS Sciex API-4000 spectrometer (Applied Biosystems, Foster City, CA) equipped with a Shimadzu HPLC (Columbia, MD). For peptide quantification from degradation experiments, PGP and AcPGP were measured using a Thermo Accela Pump and Autosampler coupled to a Thermo TSQ Quantum Access. […] Peak area was measured, and PGP/AcPGP peptide concentrations were calculated using a relative standard curve method as previously described.
Mouse serum (diluted 1/10 in PBS) or recombinant human LTA4H (0.1 μg/ml; Cayman Chemicals, Michigan, USA) were incubated with 0.4 mM PGP at 37 °C in 5% CO2 for varying periods of time. Concentrations of PGP remaining were subsequently quantified by ESI-LC/MS/MS (as discussed above) by comparison with PGP standards. The percentage of peptide degraded was determined relative to control samples of 0.4 mM PGP alone. PGP degradation was also assessed by measurement of free proline released and its ensuing reaction with Ninhydrin (as discussed below). […]
To assess free proline liberated, aliquots from PGP degradation experiments were diluted 1 in 10 in PBS (to a final volume of 250 μl). […] The reaction mixture was heated at 100 °C for 60 minutes, allowed to cool to room temperature and the proline containing fraction extracted with 500 μl of toluene and optical density measured at 520 nm.

| SMILES | IC50 |
| --- | --- |
| O=C(O)CCCN1CCC[C@H]1COc1ccc(Oc2ccc(Cl)cc2)cc1 [DG-051, 4-[(2S)-2-{[4-(4-chlorophenoxy)phenoxy]methyl}-1-pyrrolidinyl]butanoic acid, reference compound] | 150 ± 19.4 nM |
| CN(CCCOc1ccc(Cc2ccccc2)cc1)CCC(=O)O.Cl [SC57461A, 3-[methyl[3-[4-(phenylmethyl)phenoxy]propyl]amino]propanoic acid HCl] | 74 ± 7.3 nM |
